Experimental findings from ChEMBL document CHEMBL5058646 (2022) are described below.

In one experiment the target is T1, Myoneurin (Homo sapiens) (UniProt Q9NPC7).
T1 sequence (whole entry): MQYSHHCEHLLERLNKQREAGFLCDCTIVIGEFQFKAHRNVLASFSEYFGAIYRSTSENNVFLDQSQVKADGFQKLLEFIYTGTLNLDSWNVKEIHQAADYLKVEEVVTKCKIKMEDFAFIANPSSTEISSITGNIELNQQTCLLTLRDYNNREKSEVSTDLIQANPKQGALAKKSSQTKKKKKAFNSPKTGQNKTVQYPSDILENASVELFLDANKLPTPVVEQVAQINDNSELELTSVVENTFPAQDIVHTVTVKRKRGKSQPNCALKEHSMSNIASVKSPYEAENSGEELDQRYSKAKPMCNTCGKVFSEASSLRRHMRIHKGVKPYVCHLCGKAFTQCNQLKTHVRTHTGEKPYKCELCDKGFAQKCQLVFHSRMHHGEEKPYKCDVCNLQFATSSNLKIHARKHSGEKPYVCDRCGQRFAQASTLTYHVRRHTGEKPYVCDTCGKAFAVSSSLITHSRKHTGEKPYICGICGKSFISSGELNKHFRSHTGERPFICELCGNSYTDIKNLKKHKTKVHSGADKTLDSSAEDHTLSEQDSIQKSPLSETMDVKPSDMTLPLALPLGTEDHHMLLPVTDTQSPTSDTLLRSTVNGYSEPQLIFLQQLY
The note with it: SUD4.

Experiment [1] has as its target T2, Zinc finger and BTB domain-containing protein 10 (Homo sapiens) (UniProt Q96DT7).
T2 sequence (whole entry): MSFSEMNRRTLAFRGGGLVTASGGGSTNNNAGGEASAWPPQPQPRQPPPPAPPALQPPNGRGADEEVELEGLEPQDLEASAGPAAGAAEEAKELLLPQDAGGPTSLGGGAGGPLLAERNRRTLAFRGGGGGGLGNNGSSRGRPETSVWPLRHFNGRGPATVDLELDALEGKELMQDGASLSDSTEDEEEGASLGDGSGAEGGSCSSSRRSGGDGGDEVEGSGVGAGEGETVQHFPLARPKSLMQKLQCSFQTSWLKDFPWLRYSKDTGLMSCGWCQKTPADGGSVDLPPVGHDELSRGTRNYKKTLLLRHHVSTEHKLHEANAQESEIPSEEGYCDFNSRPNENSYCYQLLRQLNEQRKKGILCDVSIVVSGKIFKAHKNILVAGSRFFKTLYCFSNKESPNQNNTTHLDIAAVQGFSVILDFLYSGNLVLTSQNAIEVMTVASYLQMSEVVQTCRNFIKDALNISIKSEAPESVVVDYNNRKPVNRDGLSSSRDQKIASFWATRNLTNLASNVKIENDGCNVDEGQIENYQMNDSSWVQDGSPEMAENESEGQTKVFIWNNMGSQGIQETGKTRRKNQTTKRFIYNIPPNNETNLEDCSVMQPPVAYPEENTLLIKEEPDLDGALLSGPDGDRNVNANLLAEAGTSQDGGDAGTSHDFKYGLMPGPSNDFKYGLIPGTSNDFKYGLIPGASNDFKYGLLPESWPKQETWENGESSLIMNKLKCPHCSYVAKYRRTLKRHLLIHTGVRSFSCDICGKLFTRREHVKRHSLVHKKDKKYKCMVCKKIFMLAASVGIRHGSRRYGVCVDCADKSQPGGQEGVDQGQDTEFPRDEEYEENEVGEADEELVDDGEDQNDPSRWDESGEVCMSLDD
Particulars: SUD4.

Experiment [2] addresses T3, Zinc finger and BTB domain-containing protein 11 (Homo sapiens) (UniProt O95625).
T3 sequence (whole entry): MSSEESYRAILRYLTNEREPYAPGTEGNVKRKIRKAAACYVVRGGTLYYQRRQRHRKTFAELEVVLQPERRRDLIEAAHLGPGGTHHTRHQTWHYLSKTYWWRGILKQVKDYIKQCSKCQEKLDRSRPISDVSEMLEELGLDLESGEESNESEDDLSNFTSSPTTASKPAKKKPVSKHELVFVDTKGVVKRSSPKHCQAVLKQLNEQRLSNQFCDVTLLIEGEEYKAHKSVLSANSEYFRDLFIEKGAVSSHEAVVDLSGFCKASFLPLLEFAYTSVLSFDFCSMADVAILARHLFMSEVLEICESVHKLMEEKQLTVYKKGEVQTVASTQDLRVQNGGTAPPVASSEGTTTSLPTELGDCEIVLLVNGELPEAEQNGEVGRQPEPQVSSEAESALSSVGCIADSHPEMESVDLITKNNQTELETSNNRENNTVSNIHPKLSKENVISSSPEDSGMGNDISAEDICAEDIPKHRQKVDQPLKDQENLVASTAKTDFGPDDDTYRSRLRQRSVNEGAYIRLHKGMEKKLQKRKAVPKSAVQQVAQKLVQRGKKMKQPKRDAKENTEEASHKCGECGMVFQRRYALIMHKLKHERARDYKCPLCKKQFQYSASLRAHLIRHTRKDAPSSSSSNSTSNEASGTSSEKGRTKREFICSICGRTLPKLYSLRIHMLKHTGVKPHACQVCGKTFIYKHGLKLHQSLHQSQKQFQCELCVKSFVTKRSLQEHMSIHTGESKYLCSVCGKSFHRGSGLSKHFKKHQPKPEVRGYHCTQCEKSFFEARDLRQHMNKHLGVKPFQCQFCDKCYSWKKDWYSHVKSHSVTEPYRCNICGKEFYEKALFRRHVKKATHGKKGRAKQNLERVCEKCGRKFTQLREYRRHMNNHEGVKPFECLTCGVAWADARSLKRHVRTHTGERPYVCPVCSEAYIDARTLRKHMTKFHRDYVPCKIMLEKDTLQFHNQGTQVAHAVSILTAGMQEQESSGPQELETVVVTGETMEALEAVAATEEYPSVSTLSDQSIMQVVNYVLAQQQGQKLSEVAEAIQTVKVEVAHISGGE
Particulars: OCI-Ly1.

Each structure is given as a SMILES string.

In the case of `C[C@@H]1CN(c2ncc(Cl)c(Nc3ccc4c(c3)n(CCC(C)(C)O)c(=O)n4C)n2)C[C@H](C)C1(F)F`, the Normalized abundances for DMSO was found to be 125 on Myoneurin (Homo sapiens), 3640 in experiment [1] and 366 in experiment [2]. Also, the Normalized abundances for compound came out at 110 on Myoneurin (Homo sapiens), 3960 in experiment [1] and 364 in experiment [2].
